Laboratory results taken from patent US20040248915A1, “Method for administration of troxacitabine” (priority 2003, published 2004).

Conditions: other treated groups (0.5, 5, 10 mg/ml), 6-day infusion

Nc1ccn([C@@H]2CO[C@H](CO)O2)c(=O)n1 [troxacitabine, (−)-β-L-Dioxolane-Cytidine]
body weight gain: comparable to those from the saline treated group
